Molecular target: T1, rat brain H3R (Rattus norvegicus, UniProt Q9QYN8)
T1 construct: from tissue; host or cells: rat cerebral cortex membranes
Test: Competitive/saturation binding with [3H]N-α-methylhistamine, rat cerebral cortex membranes
Protocol: Figure 4 Competition binding experiments with [^3H]-N-α-methylhistamine. […] The presented data are the means ±SE of values from a single experiment performed in duplicate and are representative of three to six separate experiments.
The membranes (50 µg of protein) were incubated with [^3H] N-α-methylhistamine at various concentrations (from 0.03 nM to 50 nM) for saturation binding assays. For competitive binding assays, the membranes (50 µg of protein) were incubated with 10 nM [^3H] N-α-methylhistamine for recombinant hH3R or 2nM [^3H] N-α-methylhistamine for rat brain H3R in the presence of various compound concentrations in the buffer (50 mM Tris–HCl, pH 7.4). […] Following three washes, the membrane-bound radioactivity was measured on a Topcount (PerkinElmer) at 20°C. […] IC50 values were converted to Ki values using the Cheng-Prusoff equation. Each experiment was performed in duplicate and repeated three to six times. All data were analyzed by nonline arregression using GraphPad Prism version 4.0 software.

By UniProt entry, the sequences of proteins in these tests, tags left out. Where a name states a change or a piece, a line headed by the entry shows the natural chain unless it says otherwise.
UniProt Q9QYN8: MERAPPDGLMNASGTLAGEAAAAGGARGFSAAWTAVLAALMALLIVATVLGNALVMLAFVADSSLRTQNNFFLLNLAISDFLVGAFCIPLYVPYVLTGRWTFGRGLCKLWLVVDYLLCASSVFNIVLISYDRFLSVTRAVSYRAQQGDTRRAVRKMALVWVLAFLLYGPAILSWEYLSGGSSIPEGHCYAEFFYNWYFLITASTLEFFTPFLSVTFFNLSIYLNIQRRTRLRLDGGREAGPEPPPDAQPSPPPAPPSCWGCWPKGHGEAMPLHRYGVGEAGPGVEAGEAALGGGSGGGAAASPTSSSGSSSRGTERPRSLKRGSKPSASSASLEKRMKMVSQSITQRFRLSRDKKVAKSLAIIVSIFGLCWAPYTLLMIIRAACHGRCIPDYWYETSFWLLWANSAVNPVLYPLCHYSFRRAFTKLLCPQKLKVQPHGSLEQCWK

**Q.** `N=C(N)SCCc1cnc[nH]1` [imetit, S-[2-(4-imidazolyl)ethyl]isothiourea] was tested. Which Ki did it give?
**A.** The Ki was 110 ± 20 pM.

— publication PMC3411647 (PLoS ONE, 2012)
